Source: patent publication US20160264677A1 (GANYMED PHARMACEUTICALS, published 2016)

T1: human CLDN6 (claudin 6), full length (human, UniProt P56747 1-220)
T1 construct: denatured cell lysate in the Western blot; also called NP 067018.2
T1 sequence: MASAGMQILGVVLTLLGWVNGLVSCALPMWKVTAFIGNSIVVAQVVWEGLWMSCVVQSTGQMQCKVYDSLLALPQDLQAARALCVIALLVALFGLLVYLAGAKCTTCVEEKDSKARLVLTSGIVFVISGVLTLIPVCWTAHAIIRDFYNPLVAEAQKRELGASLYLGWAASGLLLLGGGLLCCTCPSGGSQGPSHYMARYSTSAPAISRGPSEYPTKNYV


Columns and labels:
[1] = molecular target: T1, human CLDN6 (claudin 6), full length; test: flow cytometry on OV90 ovarian cancer cells endogenously expressing CLDN6, median fluorescence
[2] = molecular target: T1, human CLDN6 (claudin 6), full length; test: flow cytometry on NEC8 testicular cancer cells endogenously expressing CLDN6, median fluorescence
[3] = molecular target: T1, human CLDN6 (claudin 6), full length; test: as above; remark: listed apart in the source
[4] = molecular target: T1, human CLDN6 (claudin 6), full length; test: flow cytometry on OV90 ovarian cancer cells endogenously expressing CLDN6, median fluorescence; remark: listed apart in the source
[5] = molecular target: T1, human CLDN6 (claudin 6), full length; test: flow cytometry, saturation binding on HEK293 cells stably expressing human CLDN6, median fluorescence
[6] = molecular target: T1, human CLDN6 (claudin 6), full length; test: flow cytometry saturation binding, HEK293 cells stably expressing human CLDN6
[7] = molecular target: T1, human CLDN6 (claudin 6), full length; test: flow cytometry, OV90 ovarian cancer cells endogenously expressing CLDN6
[8] = molecular target: T1, human CLDN6 (claudin 6), full length; test: flow cytometry, NEC8 testicular cancer cells endogenously expressing CLDN6

| EC50 (read off the curve) [1] [mg/L] | EC50 (read off the curve) [2] [mg/L] | EC50 (read off the curve) [3] [mg/L] | EC50 (read off the curve) [4] [mg/L] | EC50 (read off the curve) [5] [mg/L] | EC50 [6] [mg/L] | EC50 [7] [mg/L] | EC50 [8] [mg/L] | Binder |
| --- | --- | --- | --- | --- | --- | --- | --- | --- |
| ~0.5 | ~0.6 | ~0.5 | ~0.6 | ~0.5 |  |  |  | chimeric monoclonal antibody chimAB 64A (antibody, human IgG1, kappa, V domains shown, Mouse/human chimeric IgG1, kappa) VH: EVQLQQSGPELVKPGASMKISCKASGYSFTGYTMNWVKQSHGKNLEWIGLINPYNGGTIYNQKFKGKATLTVDKSSSTAYMELLSLTSEDSAVYYCARDYGFVLDYWGQGTTLTVSS VL: QIVLTQSPSIMSVSPGEKVTITCSASSSVSYMHWFQQKPGTSPKLCIYSTSNLASGVPARFSGRGSGTSYSLTISRVAAEDAATYYCQQRSNYPPWTFGGGTKLEIKR |
|  |  |  |  |  | 2.3 | 1.5 | 1.7 | chimeric monoclonal antibody chimAB 61D (antibody, human IgG1, kappa, V domains shown, Mouse/human chimeric IgG1, kappa) VH: EVQLQQSGPELVKPGASMKISCKASGYSFTGYTMNWVKQSHGKNLEWIGLINPYNGGTSYNQKFKGKATLTIDKSSSTAYMELLSLTSEDSAVYYCARDYGYVLDYWGQGTTLTVSS VL: QIVLTQSPAIMSASPGEKVTITCSASSSVSYLHWFQQKPGTSPKLWVYSTSNLPSGVPARFGGSGSGTSYSLTISRMEAEDAATYYCQQRSIYPPWTFGGGTKLEIKR |
